Assay results reported in patent publication US20100144700A1, “HETEROCYCLIC-CARBONYL-DIAZABICYCLOALKANES AS MODULATORS OF THE NEURONAL NICOTINIC ACETYLCHOLINE ALPHA 4 BETA 2, SUBTYPE RECEPTOR FOR THE TREATMENT OF CNS RELATED DISORDERS” (TARGACEPT, INC., priority 2007, published 2010).

The chains behind the UniProt entries cited, without tags or fusion partners. Residues count along the entry.
UniProt Q05941, 23-502 limits assumed: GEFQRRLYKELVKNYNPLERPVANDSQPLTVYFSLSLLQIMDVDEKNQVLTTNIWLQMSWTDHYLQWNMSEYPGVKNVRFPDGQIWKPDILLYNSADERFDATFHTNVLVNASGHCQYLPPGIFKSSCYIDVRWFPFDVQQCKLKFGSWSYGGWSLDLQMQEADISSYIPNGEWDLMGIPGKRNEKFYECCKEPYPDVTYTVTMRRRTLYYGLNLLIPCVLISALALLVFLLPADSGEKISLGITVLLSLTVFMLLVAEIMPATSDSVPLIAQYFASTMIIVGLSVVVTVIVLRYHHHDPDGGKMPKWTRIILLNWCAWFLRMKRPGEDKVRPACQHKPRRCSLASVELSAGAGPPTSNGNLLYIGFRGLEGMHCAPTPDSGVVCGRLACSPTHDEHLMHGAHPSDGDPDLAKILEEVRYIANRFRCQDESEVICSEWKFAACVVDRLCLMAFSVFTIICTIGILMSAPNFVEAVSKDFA
UniProt P17787, 26-502 limits assumed: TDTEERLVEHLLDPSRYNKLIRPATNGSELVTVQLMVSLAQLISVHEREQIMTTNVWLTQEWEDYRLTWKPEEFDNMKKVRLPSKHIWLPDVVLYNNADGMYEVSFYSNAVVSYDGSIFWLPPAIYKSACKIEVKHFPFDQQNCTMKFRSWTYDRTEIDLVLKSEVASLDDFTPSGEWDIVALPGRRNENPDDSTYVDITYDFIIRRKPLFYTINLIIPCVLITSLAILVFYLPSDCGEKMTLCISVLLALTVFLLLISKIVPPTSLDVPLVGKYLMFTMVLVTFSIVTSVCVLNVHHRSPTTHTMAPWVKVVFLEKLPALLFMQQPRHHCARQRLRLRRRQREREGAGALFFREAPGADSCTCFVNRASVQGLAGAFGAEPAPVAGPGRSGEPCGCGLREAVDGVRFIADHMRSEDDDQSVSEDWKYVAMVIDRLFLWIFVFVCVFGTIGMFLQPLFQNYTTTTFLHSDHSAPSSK
UniProt P43681, 29-627 limits assumed: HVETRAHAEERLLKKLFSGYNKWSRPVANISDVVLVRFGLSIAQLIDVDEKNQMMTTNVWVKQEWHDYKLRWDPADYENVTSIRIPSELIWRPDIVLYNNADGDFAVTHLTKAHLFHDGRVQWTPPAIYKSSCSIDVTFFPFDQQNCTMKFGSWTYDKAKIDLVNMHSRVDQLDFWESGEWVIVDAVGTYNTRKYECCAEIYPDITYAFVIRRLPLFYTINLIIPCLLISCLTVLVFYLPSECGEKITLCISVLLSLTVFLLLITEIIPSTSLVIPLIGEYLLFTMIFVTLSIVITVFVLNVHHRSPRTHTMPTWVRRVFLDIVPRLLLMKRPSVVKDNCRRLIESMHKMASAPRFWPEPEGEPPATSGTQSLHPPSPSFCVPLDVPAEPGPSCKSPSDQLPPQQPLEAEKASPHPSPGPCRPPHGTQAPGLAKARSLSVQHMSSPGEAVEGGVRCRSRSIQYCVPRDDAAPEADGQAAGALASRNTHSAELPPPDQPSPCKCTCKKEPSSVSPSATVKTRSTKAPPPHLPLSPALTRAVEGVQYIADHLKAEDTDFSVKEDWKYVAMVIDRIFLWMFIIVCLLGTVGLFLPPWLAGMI
UniProt P09483, 31-630 limits assumed: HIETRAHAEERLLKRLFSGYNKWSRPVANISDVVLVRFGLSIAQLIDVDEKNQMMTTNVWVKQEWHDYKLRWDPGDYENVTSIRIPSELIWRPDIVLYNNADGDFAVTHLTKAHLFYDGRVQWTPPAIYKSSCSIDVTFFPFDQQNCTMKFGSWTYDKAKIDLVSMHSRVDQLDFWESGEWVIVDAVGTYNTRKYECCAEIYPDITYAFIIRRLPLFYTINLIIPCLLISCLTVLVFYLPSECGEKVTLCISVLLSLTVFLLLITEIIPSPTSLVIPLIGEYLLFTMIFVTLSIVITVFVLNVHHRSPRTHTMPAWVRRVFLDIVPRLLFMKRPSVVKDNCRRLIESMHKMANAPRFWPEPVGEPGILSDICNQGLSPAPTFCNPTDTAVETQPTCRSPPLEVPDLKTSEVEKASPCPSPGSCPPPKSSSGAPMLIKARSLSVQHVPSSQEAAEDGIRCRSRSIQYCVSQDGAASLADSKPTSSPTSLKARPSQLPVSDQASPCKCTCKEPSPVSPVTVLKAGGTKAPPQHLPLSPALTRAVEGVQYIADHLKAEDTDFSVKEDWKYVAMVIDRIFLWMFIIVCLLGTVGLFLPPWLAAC
UniProt P12390, 25-500 limits assumed: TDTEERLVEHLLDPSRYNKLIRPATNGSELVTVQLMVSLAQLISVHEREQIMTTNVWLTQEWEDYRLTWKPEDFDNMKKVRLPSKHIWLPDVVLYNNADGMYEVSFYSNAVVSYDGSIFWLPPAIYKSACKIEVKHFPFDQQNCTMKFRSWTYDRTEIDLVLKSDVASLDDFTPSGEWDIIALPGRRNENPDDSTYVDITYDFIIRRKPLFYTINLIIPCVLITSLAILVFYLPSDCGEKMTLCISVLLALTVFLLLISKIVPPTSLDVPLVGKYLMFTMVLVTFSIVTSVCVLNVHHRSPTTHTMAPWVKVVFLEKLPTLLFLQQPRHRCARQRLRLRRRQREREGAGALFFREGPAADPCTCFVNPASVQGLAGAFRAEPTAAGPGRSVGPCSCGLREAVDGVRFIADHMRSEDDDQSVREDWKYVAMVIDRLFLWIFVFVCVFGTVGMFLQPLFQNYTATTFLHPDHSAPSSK

Legend:
[1] = molecular target: α7 nAChR Subtype (Rattus norvegicus, UniProt Q05941); experiment: Radioligand binding ([3H]MLA) at α7 nAChR subtype, rat hippocampus membranes; HTS at 5 μM; conditions: 5 μM compound, 5 nM 3H-MLA
Description: (§1) Rats (female, Sprague-Dawley), weighing 150-250 g, were maintained on a 12 h light/dark cycle and were allowed free access to water and food supplied by PMI Nutrition International, Inc. Animals were anesthetized with 70% CO2, then decapitated. Brains were removed and placed on an ice-cold platform. The hippocampus was removed and placed in 10 volumes (weight:volume) of ice-cold preparative buffer (137 mM NaCl, 10.7 mM KCl, 5.8 mM KH2PO4, 8 mM Na2HPO4, 20 mM HEPES (free acid), 5 mM iodoacetamide, 1.6 mM EDTA, pH 7.4); PMSF, dissolved in methanol to a final concentration of 100 μM, was added and the tissue suspension was homogenized by Polytron. The homogenate was centrifuged at 18,000×g for 20 min at 4° C. and the resulting pellet was re-suspended in 10 volumes of ice-cold water. After 60 min incubation on ice, a new pellet was collected by centrifugation at 18,000×g for 20 min at 4° C. The final pellet was re-suspended in 10 volumes of buffer and stored at −20° C. […] Protein was determined by the method of Lowry et al., J. Biol. Chem. 193: 265 (1951), using bovine serum albumin as the standard.
The binding of [^3H]MLA was measured using a modification of the methods of Davies et al., Neuropharmacol. […] The binding of [^3H]MLA was determined using a 2 h incubation at 21° C. […] Non-specific binding was determined by inclusion of 50 μM non-radioactive MLA in selected wells. […]

[2] = molecular target: Human α4β2 (Homo sapiens, UniProt P17787+P43681); experiment: Binding at human α4β2 subtype (Table 1); conditions: read-out: Human α4β2 Ki
[3] = molecular target: α4β2 nAChR Subtype (Rattus norvegicus, UniProt P09483+P12390); experiment: Radioligand binding ([3H]nicotine) at rat α4β2 nAChR subtype, rat cerebral cortex membranes; conditions: read-out: Rat α4β2 Ki, [3H]nicotine 5 nM
Description: as §1, with “The cerebral cortex” for “The hippocampus”, “in 20” for “in 10”, “the” for “the tissue”, “Polytron.” for “Polytron. The homogenate was centrifuged at 18,000×g for 20 min at 4° C. and the resulting pellet was re-suspended in 10 volumes of ice-cold water. After 60 min incubation on ice, a new pellet was collected by centrifugation at 18,000×g for 20 min at 4° C. The final pellet was re-suspended in 10 volumes of buffer and stored at −20° C.”
The binding of [^3H]nicotine was measured using a modification of the methods of Romano et al., Science 210: 647 (1980) and Marks et al., Mol. Pharmacol. 30: 427 (1986). […] The binding of [^3H]nicotine was measured using a 3 h incubation at 4° C. […] Non-specific binding was determined by inclusion of 10 μM non-radioactive L-nicotine (Acros Organics) in selected wells.
The inhibition of [^3H]nicotine binding by test compounds was determined by including seven different concentrations of the test compound in selected wells. […]

For `O=C(c1cc(Br)co1)N1C[C@@H]2CN[C@@H](C2)C1`, the “α7 high throughput screening (HTS) binding” value [1] was “ND; Failed HTS (the compound failed to inhibit, at 5 μM concentration, the binding of 5 nM ^3H-MLA (methyllycaconitine) by at least 50%)”, the Ki [2] was 30.5 nM and the Ki [3] was 67.5 nM.
